Compounds with a hit are over-represented: about 13% of the library has one in this group of screens.
ALDH1A1 block: ALDH1A1 (human) enzyme inhibition | Potency, µM (titrated, usually from 75.3 µM), for the others: at the highest dose activity, negative = inhibition, actives largely listed as inhibitors | Purified ALDH1A1, NADH fluorescence, propionaldehyde substrate | AID 1030 | 7.3% of 220,000 active; active = well fitted inhibition curve with a large enough effect, not every such curve was filed as active; inconclusive = small, poorly fitted or top-dose-only effect, or another doubt; inactive = no such curve, though single readings can be large or run the other way;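 note: potency is the fitted concentration of half-maximal effect; plate controls were no enzyme wells and a reference inhibitor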
Lamin A splicing: LMNA splicing modulation; HeLa LMNA splicing GFP/RFP minigene ratio, 48 h; Potency, µM (titrated, usually from 46.1 µM), inactives show top-dose ratio change, negative = inhibition, actives largely listed as inhibitors; 0.01% of 200,000 active; AID 1487; active = well fitted inhibition curve with a large enough effect in the signal ratio, with a control signal flat, not every such curve was filed as active; inconclusive = small, poorly fitted or top-dose-only effect, or effect the other way, or a change in a side signal; the % refers to the signal ratio; note: potency is the fitted concentration of half-maximal effect; % is set by controls: 0 for no effect and ±100 for the full control effect
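S3 HeLa stable clones carrying a lamin A-EGFP splicing minigene plus DsRed2 were seeded at 600 cells/well in Opti-MEM with 2% FBS, pin-dosed and incubated 48 h at 37°C. Acumen cytometry (488 nm) gave the GFP/RFP total-intensity ratio.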
miR-21 FLuc: miR-21 reporter, rising signal | HeLa miR-21 FLuc reporter, luciferase, 48 h | Potency, µM (top dose mostly 38.3 µM), inactives show at the highest dose reporter change, positive = more light | 340,000 tested, under 10 active | AID 2288; active = well fitted rising curve with a large enough effect; inconclusive = small, poorly fitted or top-dose-only effect; inactive = no such curve, though single readings can be large or run the other way;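 note: % of control where 0% means no effect; miR-21 action dims this reporter so a rising signal means less miR-21 action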
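HeLa miR-21-FLuc reporter line, endogenous miR-21; 2000 cells/well in DMEM/10% FBS; compound titration up to ~40uM final, 48 h, 37 degree Celsius; luciferase detection reagent, 15 min lysis, CCD luminescence.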
Sfp inh: Sfp phosphopantetheinyl transferase inhibition; 310,000 tested, 3.5% active; Potency, µM, inactives show max response, negative = inhibition, hits mostly inhibitors; AID 1490; Q9F4F7; Biochemical Sfp PPTase activity, qHTS; active = well fitted inhibition curve with a large enough effect; inconclusive = small, poorly fitted or top-dose-only effect, or another doubt; inactive = no such curve, though single readings can be large or run the other way;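 also: the enzyme is Sfp with the accession as filed and its product quenches rhodamine fluorescence; potency is read from the fitted curve at half-maximal effect; 0% = enzyme reaction without inhibitor and -100% = no enzyme wells; top concentration of the series not given in the record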
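Step 1, compound plus 15 nM Sfp-PPTase, 15 min, room temperature. Step 2, add rhodamine-CoA (5 uM) and BHQ-2-YbbR (12.5 uM). Step 3, read 525/598 nm fluorescence at 0 and 30 min.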
KDM4E inh: JMJD2E (human) inhibition; B2RXH2; JMJD2E catalytic domain, FDH-coupled NADH fluorescence (FDH is formaldehyde dehydrogenase); Potency, µM (highest dose often 57.1 µM), for inactives: top-dose activity change, negative = inhibition, usual class: inhibitors; 1.6% of 230,000 active; active = well fitted inhibition curve with a large enough effect, not every such curve was filed as active; inconclusive = small, poorly fitted or top-dose-only effect, or another doubt; inactive = no such curve, though single readings can be large or run the other way;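 note: potency is the fitted concentration of half-maximal effect; 0% = wells with enzyme and -100% = buffer wells without enzyme; nearly all actives have a fitted effect of over 50% in size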
G9a block: G9a (human) methyltransferase inhibition; G9a H3K9 monomethylation, AlphaScreen, 2 h; Potency, µM (titrated, usually from 102 µM), for inactives: top-dose activity, negative = inhibition, most hits filed as inhibitors; 8.8% of 350,000 active; AID 504332; note: potency is the fitted concentration of half-maximal effect; % is set by controls: 0 for no effect and ±100 for the full control effect; nearly all actives have a fitted effect of over 75% in size
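G9a (20 nM) preincubated 15 min RT with compounds, then 500 nM biotinylated H3K9 peptide and 20 uM SAM added; 2 h RT reaction. Monomethyl-H3K9 product detected by AlphaScreen with anti-H3K9me1 antibody, streptavidin donor and anti-rabbit IgG acceptor beads.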
Active calls of the source: *; ! = repeats disagree; [ ] = remark or other dose. Unless noted, calls come from the whole dose curve; as a rule, active = well fitted curve in the direction sought with a large enough effect; inconclusive = small, poorly fitted or top-dose-only effect, or another doubt; inactive = no such curve, though single readings can be large; an effect the other way counts as inactive or inconclusive.

How did CC(=O)O[C@H]1C(=O)[C@@]2(C)C([C@H](OC(=O)c3ccccc3)[C@]3(O)C[C@H](OC(=O)[C@H](O)[C@@H](NC(=O)Cc4ccccc4)c4ccccc4)C(C)=C1C3(C)C)[C@]1(OC(C)=O)CO[C@@H]1C[C@@H]2O (stereo partly specified) do in these assays?
miR-21 FLuc: 4.4%; Sfp inh: 15.4%; G9a block: -11.9%[12.7 µM]

How did CC(=O)O[C@@]12CO[C@@H]1C[C@H](O)[C@@]1(C)C(=O)[C@H](O)C3=C(C)[C@@H](OC(=O)[C@H](O)[C@@H](NC(=O)c4ccccc4)c4ccccc4)C[C@@](O)([C@@H](OC(=O)c4ccccc4)C12)C3(C)C (stereo partly specified) do in these assays?
miR-21 FLuc: 10.3%; Sfp inh: 11.2µM*; G9a block: 16.5%[12.7 µM]

Results for C=C1C/C(=C\C)C(=O)O[C@@H]2CCN3CC=C(COC(=O)[C@@]1(C)O)[C@H]23 ?
ALDH1A1 block: 18.1%[20.9 µM]; Lamin A splicing: -24.1%; Sfp inh: 13.9%; KDM4E inh: inconclusive; G9a block: 21.5%[21.5 µM]

Results for CC(C)=CCC/C(C)=C/CN(CC(C)O)CC(C)O (stereo unspecified) ?
ALDH1A1 block: -12.1%; Lamin A splicing: -3.0%; miR-21 FLuc: -5.6%; Sfp inh: inconclusive; KDM4E inh: inconclusive; G9a block: 10µM*

How did COc1cccc(CCNCc2ccc(SC)cc2)c1 do in these assays?
ALDH1A1 block: inconclusive; Lamin A splicing: -3.1%; miR-21 FLuc: -11.8%; Sfp inh: -18.6%; KDM4E inh: inconclusive; G9a block: 3.16µM*

What do the screens show for `COc1ccc(CCNCc2ccc(OC)c(OC)c2OC)cc1`?
ALDH1A1 block: inconclusive; Lamin A splicing: 0.0%; miR-21 FLuc: -5.5%; Sfp inh: -15.3%; KDM4E inh: inconclusive; G9a block: 14.1µM*

Results for COc1ccc(CCNCc2ccncc2)cc1 ?
ALDH1A1 block: 22.4µM*; Lamin A splicing: 6.5%; miR-21 FLuc: -3.4%; Sfp inh: -1.8%; KDM4E inh: -6.5%; G9a block: inconclusive

How did COc1ccc(CCNCc2ccccc2)cc1 do in these assays?
miR-21 FLuc: -6.9%; Sfp inh: -26.1%; G9a block: 5.1%[2.33 µM]

Results for COc1ccc(CCNC(C)CCc2ccc(OC)cc2)cc1 (stereo unspecified) ?
ALDH1A1 block: -1.8%; Lamin A splicing: 11.9%; miR-21 FLuc: -12.5%; Sfp inh: 6.4%; KDM4E inh: -9.2%; G9a block: inconclusive

How did COc1ccc(CCNCc2c(OC)ccc3ccccc23)cc1 do in these assays?
miR-21 FLuc: 3.7%; Sfp inh: -11.4%; G9a block: 14.1µM*

Results for NC1CCCCC1N (stereo unspecified) ?
Sfp inh: -2.6%

What do the screens show for `COc1ccc(CNCCc2c[nH]c3ccccc23)c(OC)c1OC`?
miR-21 FLuc: 1.7%; Sfp inh: 9.4%; G9a block: inconclusive

How did COc1ccccc1CCNCc1ccc(OC)c(OC)c1OC do in these assays?
ALDH1A1 block: inconclusive; miR-21 FLuc: -6.1%; Sfp inh: inconclusive; KDM4E inh: 5.62µM*

How did O=C(O)CCC(=O)NCCC1=c2ccccc2=N/C1=C\c1c(O)n(Cc2ccc(F)cc2)c(=S)[nH]c1=O do in these assays?
miR-21 FLuc: -14.1%; Sfp inh: 35.5µM*; KDM4E inh: inconclusive

Results for O=C(N/N=C/c1c(O)n(Cc2ccc(F)cc2)c(=O)[nH]c1=O)c1ccccc1 ?
ALDH1A1 block: 2.6%; miR-21 FLuc: -31.5%; Sfp inh: 24.4%; KDM4E inh: inconclusive; G9a block: 0.9%

How did O=C1c2ccccc2C(=O)N1SC1CCCCC1 do in these assays?
ALDH1A1 block: 1.41µM*; Lamin A splicing: -4.4%; miR-21 FLuc: 12.1%; Sfp inh: 10µM*; KDM4E inh: -2.4%; G9a block: 2µM*

What do the screens show for `Cl/C=C\Cl`?
ALDH1A1 block: 20.1%

How did COc1cc(CCN)ccc1O do in these assays?
ALDH1A1 block: -7.3%; Lamin A splicing: inconclusive; Sfp inh: 27.7%; KDM4E inh: -28.8%; G9a block: -24.2%[59 µM]

What do the screens show for `COc1cc(CNC(=O)CCCC/C=C\C(C)C)ccc1O`?
ALDH1A1 block: 3.55µM*; Lamin A splicing: 0.2%[46 µM]; miR-21 FLuc: -0.9%; Sfp inh: 16.1%; KDM4E inh: inconclusive; G9a block: 22.4%[59 µM]

What do the screens show for `CC[C@@H]1C(=O)OC[C@@H]1Cc1cncn1C`?
ALDH1A1 block: 6.0%; Lamin A splicing: inconclusive; miR-21 FLuc: -3.3%; Sfp inh: -2.9%; KDM4E inh: 25.1µM*!; G9a block: -2.3%[12.7 µM]

What do the screens show for `CC1(C)C(=O)C=C[C@@]2(C)C1=C(O)C(=O)[C@@]1(C)C2CC[C@@]2(C)C(c3ccoc3)C[C@H]3O[C@@]321` (stereo partly specified)?
ALDH1A1 block: 3.4%; Sfp inh: -16.9%; KDM4E inh: -0.5%; G9a block: -29.3%[2.33 µM]

How did CCOc1ccc2nc(N3CCC(C(=O)Nc4ccc(Br)cc4F)CC3)sc2c1 do in these assays?
miR-21 FLuc: -43.6%; G9a block: -0.4%[59 µM]

Results for COc1ccc(C(=O)NC(=S)N2C[C@H]3C[C@H](C2)c2cccc(=O)n2C3)cc1 ?
miR-21 FLuc: -6.5%; Sfp inh: inconclusive; G9a block: 25.1µM*

What do the screens show for `COc1ccc(/C=C/C(=O)NC(=S)N2C[C@H]3C[C@H](C2)c2cccc(=O)n2C3)cc1`?
miR-21 FLuc: 0.3%; Sfp inh: 6.3%; G9a block: inconclusive

Results for COc1ccc(NC(=O)N2C[C@@H]3C[C@@H](C2)c2cccc(=O)n2C3)cc1 ?
miR-21 FLuc: -2.2%; Sfp inh: 18.6%

How did O=C(/C=C/c1ccc(Cl)cc1)NC(=S)N1C[C@H]2C[C@H](C1)c1cccc(=O)n1C2 do in these assays?
miR-21 FLuc: -3.8%; Sfp inh: -14.4%; G9a block: 17.8µM*

What do the screens show for `O=C(/C=C/c1ccc(Br)cc1)NC(=S)N1C[C@H]2C[C@H](C1)c1cccc(=O)n1C2`?
miR-21 FLuc: -2.7%; Sfp inh: -3.1%; G9a block: 50.1µM*

What do the screens show for `CN1C(=O)C(Cc2cccs2)C(=O)N(C)C1=O`?
ALDH1A1 block: 3.7%; Lamin A splicing: -1.1%; miR-21 FLuc: -5.0%; Sfp inh: -29.8%; KDM4E inh: 8.7%; G9a block: inconclusive

What do the screens show for `CN1C(=O)C(Cc2ccsc2)C(=O)N(C)C1=O`?
ALDH1A1 block: 12.6µM*; Lamin A splicing: 8.0%; miR-21 FLuc: -4.7%; Sfp inh: 28.2µM*; KDM4E inh: -14.5%; G9a block: 11.2µM*

Two records picked at random from the list so far, as already listed:
What do the screens show for `COc1ccc(/C=C/C(=O)NC(=S)N2C[C@H]3C[C@H](C2)c2cccc(=O)n2C3)cc1`?
miR-21 FLuc: 0.3%; Sfp inh: 6.3%; G9a block: inconclusive

What do the screens show for `CC[C@@H]1C(=O)OC[C@@H]1Cc1cncn1C`?
ALDH1A1 block: 6.0%; Lamin A splicing: inconclusive; miR-21 FLuc: -3.3%; Sfp inh: -2.9%; KDM4E inh: 25.1µM*!; G9a block: -2.3%[12.7 µM]

High-throughput results as filed in PubChem.
